Bioassay records as filed in PubChem.
SR-BI uptake up = SR-BI HDL lipid transfer activation | activation, % at 12.5 µM | hit rate 0.096% among 320,000 | CHO ldlA[mSR-BI] cells, DiI-HDL uptake fluorescence, 3 h; 100 = double the neutral-control signal;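 active = mean replicate activation of at least 60% and every replicate at or above 60%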;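 also: 0% = median plate neutral-control signal and 100% = twice that signal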
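system = CHO ldlA[mSR-BI] cells, LDL receptor-null, SR-BI overexpressing | medium = Ham's F12 with 0.5% BSA, HEPES 25 mM, pH 7.4 | probe or stimulus = DiI-HDL 10 µg/mL | compound dosing = single-point compound dose | incubation = compound exposure 3 h, 37 °C | technique = DiI fluorescence, bottom read | read-out = cell-associated DiI fluorescence as measure of HDL uptake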
GSIS activator = primary screen for activators of insulin secretion dependent on glucose, INS-1E cells, GLuc reporter luminescence; INS-1E GLuc reporter insulin secretion, 2-3 h; activation, % at 16.6 µM; hit rate 0.61% among 370,000; AID 743287;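 active = lowest replicate activation of at least 40%, so every replicate reaches that level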;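 also: 0% = median of neutral control wells and 100% = median of IBMX positive control wells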
SR-BI DiI inh = blocks mouse SR-BI lipid uptake from DiI-HDL | inhibition, % at 12.5 µM | hit rate 0.96% among 320,000 | AID 488896 | ldlA[mSR-BI] CHO cells, DiI-HDL uptake fluorescence, 3 h;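 active = mean replicate inhibition of at least 70% and a set share of replicates each scoring 70 or more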;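 also: 0% = median of neutral control wells and 100% = median of positive control wells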
Yeast UUG start = modulators of start codon recognition fidelity in yeast; AID 602363; activity score, % at 18.7 µM; S. cerevisiae UUG-firefly luciferase reporter, luminescence/redox ratio; 0.13% of 350,000 active;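 active = replicate mean at a twofold rise or more, about +100% in these data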;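 note: firefly luciferase made from a UUG start codon reports start codon fidelity; reporter light over untreated wells divided by growth signal over untreated wells; some hits fall short of that in this replicate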
* marks the source's active call; other numbers are inactive results. A selection: hits, their analogues and other compounds. The true share with any hit is near 1.3%.

What do the screens show for `C[C@H](CO)N1C[C@H](C)[C@H](CN(C)S(=O)(=O)c2ccccc2)OCCCC[C@H](C)Oc2ccc(NC(=O)Nc3ccc(F)cc3)cc2C1=O`?
GSIS activator: -3.1; Yeast UUG start: -2.5

Results for COCCNc1nnc(SCC(=O)Nc2sc3c(c2C(=O)c2ccccc2)CCCC3)s1 ?
SR-BI uptake up: -74.6; SR-BI DiI inh: 74.5*

Results for CS(=O)(=O)c1ccc(Cl)c(NC(=O)COC(=O)c2c(Cl)cccc2Cl)c1 ?
SR-BI uptake up: -4.3; GSIS activator: 7.1; SR-BI DiI inh: 4.3; Yeast UUG start: -4.1

How did CC(=O)Nc1sc(C)c(C)c1C(=O)OCC(=O)Nc1cc(S(C)(=O)=O)ccc1Cl do in these assays?
GSIS activator: 55.7*; Yeast UUG start: -13.7

What do the screens show for `CS(=O)(=O)c1ccc(Cl)c(NC(=O)COC(=O)Cc2c[nH]c3ccccc23)c1`?
SR-BI uptake up: -17.3; GSIS activator: 51.6*; SR-BI DiI inh: 17.3; Yeast UUG start: -12.7

How did Cc1cc(C)c2nc(N(CCCN(C)C)C(=O)c3ccc4c(c3)CCCC4)sc2c1 do in these assays?
GSIS activator: 40.2*

How did O=C(C[C@@H]1CC[C@@H](NS(=O)(=O)c2ccccc2)[C@H](CO)O1)NCc1ccccc1F do in these assays?
GSIS activator: 8.6; Yeast UUG start: 3.5

What do the screens show for `CCN1/C(=C\c2ccc3cc(C)ccc3[n+]2CC)Sc2cc(C)c(C)cc21`?
SR-BI uptake up: -85.1; GSIS activator: -39.4; SR-BI DiI inh: 85.1*; Yeast UUG start: 24.4

Results for CC(C)(C)C1CCC(CN2C(Nc3ccccc3)=NC[C@@H]2Cc2ccccc2)CC1 (stereo partly specified) ?
SR-BI uptake up: -4.2; GSIS activator: 85.6*; SR-BI DiI inh: 4.2; Yeast UUG start: -4.1

Results for CCOC(=O)c1c(C)[nH]c(C(=O)COC(=O)/C=C/c2ccc3c(c2)OCO3)c1C ?
SR-BI uptake up: 14.4; GSIS activator: 59.4*; SR-BI DiI inh: -14.4

How did CCOC(=O)c1c(C)[nH]c(C(=O)COC(=O)/C=C/c2ccc(O)c(OC)c2)c1C do in these assays?
SR-BI uptake up: -42.0; GSIS activator: 2.8; SR-BI DiI inh: 42.0

Results for C[C@@H](NC(=O)[C@H]1[C@H](CO)[C@H]2Cn3c(cccc3=O)[C@H]2N1CC1CCCCC1)c1ccccc1 ?
GSIS activator: 1.1

What do the screens show for `COc1cc(/C=C(\C#N)C(=O)Nc2ccc(SC(F)F)cc2)cc(OC)c1OC`?
SR-BI uptake up: -86.0; SR-BI DiI inh: 86.0*; Yeast UUG start: -15.7

Results for COc1cc(C(=O)OCC(=O)Nc2ccc(SC(F)F)cc2)cc(OC)c1OC ?
SR-BI uptake up: 4.9; GSIS activator: -38.7; SR-BI DiI inh: -4.9; Yeast UUG start: 4.8

How did C[C@@H]1CCCCO[C@@H](CN(C)S(=O)(=O)c2cccs2)[C@H](C)CN([C@@H](C)CO)C(=O)c2cc(NC(=O)CCCN(C)C)ccc2O1 do in these assays?
GSIS activator: 0.7; Yeast UUG start: -0.3

How did C[n+]1c2n(c3ccccc31)N=C(c1cc(C(C)(C)C)c(O)c(C(C)(C)C)c1)CS2 do in these assays?
SR-BI uptake up: -16.4; GSIS activator: 301.2*; SR-BI DiI inh: 16.4

What do the screens show for `C[C@H](CO)N1C[C@H](C)[C@@H](CN(C)Cc2ccccc2)Oc2c(NC(=O)Nc3ccccc3)cccc2C1=O`?
GSIS activator: -3.8; Yeast UUG start: 12.1

Results for O=c1cc(-c2ccccc2)cc(-c2ccccc2)n1CCO ?
SR-BI uptake up: 0.8; GSIS activator: 35.6; SR-BI DiI inh: -0.8; Yeast UUG start: -14.6

How did Nn1c(-c2ccccc2)cc(-c2ccccc2)cc1=O do in these assays?
SR-BI uptake up: -14.7; GSIS activator: 67.3*; SR-BI DiI inh: 14.7; Yeast UUG start: -1.1

How did CN1C(=O)c2cc(NS(=O)(=O)c3cccc(F)c3)ccc2OC[C@@H]2O[C@@H](CC(=O)O)CC[C@@H]21 do in these assays?
GSIS activator: -4.3; Yeast UUG start: 10.5

Results for CCCNC(=O)Nc1ccc2c(c1)OC[C@@H](C)N(CC1CCCC1)C[C@@H](C)[C@@H](OC)CN(C)C2=O ?
GSIS activator: 1.9; Yeast UUG start: 10.6

How did CC(=O)N(C)C[C@@H]1Oc2cc(C#Cc3cccnc3)ccc2S(=O)(=O)N([C@@H](C)CO)C[C@@H]1C do in these assays?
GSIS activator: 29.7; Yeast UUG start: 8.9

Results for Cc1cc(C)c(OCC(=O)Nc2ccccn2)c([N+](=O)[O-])c1 ?
SR-BI uptake up: -0.5; GSIS activator: 16.7; SR-BI DiI inh: 0.5; Yeast UUG start: -12.9

What do the screens show for `Cc1ccnc(NC(=O)COc2c(C)cc(C)cc2[N+](=O)[O-])c1`?
SR-BI uptake up: -97.8; GSIS activator: 20.6; SR-BI DiI inh: 97.8*; Yeast UUG start: -0.4

Results for C/C(=N\NC(=O)c1c(Cl)c(C)nn1C)c1ccc(NC(=O)COc2ccc(Cl)cc2C)cc1 ?
SR-BI uptake up: -71.8; SR-BI DiI inh: 71.8*; Yeast UUG start: -16.7

Results for O=C(C[C@@H]1C[C@H]2c3cc(NS(=O)(=O)c4ccc(F)cc4)ccc3O[C@H]2[C@@H](CO)O1)NCC1CC1 ?
GSIS activator: 1.6; Yeast UUG start: -14.3

Results for COc1ccc2c3c([nH]c2c1)[C@H](CO)N(C(=O)NC(C)C)CC31CCN(C(=O)c2ccncc2)CC1 ?
GSIS activator: 2.6

What do the screens show for `c1cc2c(cc1C1=Nn3c(nnc3C3CCCCC3)SC1)OCO2`?
SR-BI uptake up: -7.2; SR-BI DiI inh: 7.2; Yeast UUG start: -20.5

How did CC(C)(C)C1=Nn2c(nnc2C2CCCCC2)SC1 do in these assays?
SR-BI uptake up: -2.5; GSIS activator: 80.9*; SR-BI DiI inh: 2.5; Yeast UUG start: -22.9

Results for COc1cc(OC)cc(C(=O)NC(C)CNc2ccc(Cl)cc2[N+](=O)[O-])c1 (stereo unspecified) ?
SR-BI uptake up: -79.1; GSIS activator: -15.4; SR-BI DiI inh: 79.1*; Yeast UUG start: -4.3

What do the screens show for `COCC(C)NC(=O)c1cc(OC)cc(OC)c1` (stereo unspecified)?
SR-BI uptake up: 22.4; GSIS activator: 15.2; SR-BI DiI inh: -22.4

How did C[C@@H](NC(=O)N(C)C[C@@H]1OCc2ccccc2-c2c(n(C)c3ccccc23)C(=O)N([C@@H](C)CO)C[C@@H]1C)c1ccccc1 do in these assays?
GSIS activator: -4.9

How did C[C@H]1CN([C@@H](C)CO)C(=O)c2cc(NC(=O)CCCN(C)C)ccc2O[C@@H]1CN(C)C do in these assays?
GSIS activator: 14.0; Yeast UUG start: 1.4

How did Cn1cccc1-c1cc(C(=O)N/N=C/c2ccccc2Cl)[nH]n1 do in these assays?
SR-BI uptake up: -61.8; GSIS activator: -6.9; SR-BI DiI inh: 61.8; Yeast UUG start: -18.3

How did COc1ccc(O)c(/C=N/NC(=O)c2ccc(OCc3cccc(Br)c3)cc2)c1 do in these assays?
SR-BI uptake up: -129.3; SR-BI DiI inh: 129.3*

Results for COc1ccc(Br)cc1/C=N/NC(=O)c1cccnc1 ?
SR-BI uptake up: -33.5; GSIS activator: -2.6; SR-BI DiI inh: 33.5; Yeast UUG start: -7.4

At a glance, part of the list above.
How did C[C@H]1CN([C@@H](C)CO)C(=O)c2cc(NC(=O)CCCN(C)C)ccc2O[C@@H]1CN(C)C do in these assays?
GSIS activator: 14.0; Yeast UUG start: 1.4

How did Cn1cccc1-c1cc(C(=O)N/N=C/c2ccccc2Cl)[nH]n1 do in these assays?
SR-BI uptake up: -61.8; GSIS activator: -6.9; SR-BI DiI inh: 61.8; Yeast UUG start: -18.3

How did COc1ccc(O)c(/C=N/NC(=O)c2ccc(OCc3cccc(Br)c3)cc2)c1 do in these assays?
SR-BI uptake up: -129.3; SR-BI DiI inh: 129.3*

Results for COc1ccc(Br)cc1/C=N/NC(=O)c1cccnc1 ?
SR-BI uptake up: -33.5; GSIS activator: -2.6; SR-BI DiI inh: 33.5; Yeast UUG start: -7.4
